Values joined by “and” are separate entries in the source; they are usually repeats but may differ in a detail not shown here. Equal values may be shown once. The entries are a selection whose mix differs from that of the whole data set. Results filed as inconclusive are left out. Active and inactive are the calls of the source. Calls come from the whole dose curve; as a rule, active = well fitted activation curve with a large enough effect in the signal ratio in the repeat runs, with a control signal flat (not every such curve was filed as active); inconclusive = weak or mixed curves; inactive = flat fitted curve, though single readings scatter; the % refers to the signal ratio.
Assay: qHTS assay for small molecule activators of the heat shock response signaling pathway (AID 743210)
Conditions: HeLa HSE-bla reporter, beta-lactamase ratio, 5 h; at 62.6 µM (top of the series)
Description: U.S. Tox21 Program National Center for Advancing Translational Sciences [NCATS] NIH Chemical Genomics Center [NCGC] U.S. Environmental Protection Agency [EPA] National Institutes of Environmental Health Sciences [NIEHS] National Toxicology Program [NTP] U.S. Food and Drug Administration [FDA] Tox21 Assay Overview: Various chemicals, environmental and physiological stress conditions may lead to the activation of heat shock response/ unfolded protein response (HSR/UPR). There are three heat shock transcription factors (HSFs) (HSF-1, -2, and -4) mediating transcriptional regulation of the human HSR. To identify the compounds that activate HSR signaling, HSE-bla HeLa cell line (Invitrogen, Carlsbad, CA, USA) containing a beta-lactamase reporter gene under the control of the heat shock response elements was used to screen the Tox21 10K compound library.
Tox21 Assay Protocol Summary: The CellSensor HSE-bla HeLa cells (Invitrogen, Carlsbad, CA, USA) were dispensed at 1500 cells/6uL/well into 1536-well black wall/clear bottom plates using a Multidrop combi (Thermo Fisher Scientific, Waltham, MA) dispenser. After the assay plates were incubated at 37 C and 5% CO2 overnight, 23 nL of compounds dissolved in DMSO, positive controls or DMSO only was transferred to the assay plate by a Pintool station (Kalypsys, San Diego, CA). The plates were incubated at 37 C for 5 h. After 1 uL of LiveBLAzerTM B/G FRET substrate was added using a Flying Reagent Dispenser (Beckman Coulter, Indianapolis, IN, USA), the plates were incubated at room temperature for 2.5 h, and fluorescence intensity was measured by an Envision plate reader (PerkinElmer, Shelton, CT).
% is set by controls: 0 for no effect and ±100 for the full control effect.

SMILES | activation
OCCSCCO | inactive: -1.28%
COP(C)(=O)OC | inactive: 3.76%
CCOP(=O)(CC)OCC | inactive: -0.149%
CCOP(=O)(CC)Oc1ccc([N+](=O)[O-])cc1 (stereo not given) | inactive: 6.73%
O=[N+]([O-])OCC(CO[N+](=O)[O-])(CO[N+](=O)[O-])CO[N+](=O)[O-] | inactive: -0.315%
Cc1cccc([N+](=O)[O-])c1[N+](=O)[O-] | inactive: 3.8%
COc1ccc([N+](=O)[O-])cc1[N+](=O)[O-] | inactive: -0.114%
CC(C)N(CCO)C(C)C | inactive: -1.3%
CC(C)OP(C)(=O)OC(C)C | inactive: -0.252% and inactive: 0.56%
CP(=O)(O)OCCC[Si](O)(O)O | inactive: -1.29%
O=[N+]([O-])[O-].[NH4+] | inactive: -0.213% and inactive: 6.35%
Cc1ccc([N+](=O)[O-])cc1[N+](=O)[O-] | inactive: -0.743% and inactive: -0.374%
Cc1c([N+](=O)[O-])cccc1[N+](=O)[O-] | inactive: -1.84% and inactive: -1.21%
[NH4+].[O-][Cl+3]([O-])([O-])[O-] | inactive: -1.51%
C/C1=C2N=C(/C=C3N=C(/C(C)=C4\[N-][C@@](C)([C@@H]5N=C1[C@](C)(CCC(=O)NC[C@@H](C)OP(=O)([O-])O[C@H]1[C@@H](O)[C@@H](n6cnc7cc(C)c(C)cc76)O[C@@H]1CO)[C@H]5CC(N)=O)[C@@](C)(CC(N)=O)[C@@H]4CCC(N)=O)[C@@](C)(CC(N)=O)[C@@H]\3CCC(N)=O)C(C)(C)[C@@H]/2CCC(N)=O.[C-]#N.[Co+3] | inactive: 0.349%

Same assay, conditions: HeLa HSE-bla reporter, beta-lactamase ratio, 5 h; at 81.1 µM (top of the series)

SMILES | activation
OCCSCCO | inactive: -0.487%
COP(C)(=O)OC | inactive: -1.08%
CCN(CC)CCCl | inactive: 0.645%
N=C(N)N[N+](=O)[O-] | inactive: 0.0992%
[NH4+].[O-][Cl+3]([O-])([O-])[O-] | inactive: -0.637%

Source: PubChem BioAssay (Tox21)
